Screens deposited in PubChem by National Center for Advancing Translational Sciences (NCATS).
A selection: hits, their analogues and other compounds. The true share with any hit is near 3.7%.
Nrf2 block = inhibitors of Nrf2 signaling. A549 ARE-Fluc reporter, luciferase luminescence, 18-24 h. Potency, µM (titrated, usually from 46 µM), for the others: at the highest dose activity change, negative = inhibition, most hits filed as inhibitors. 2.1% of 360,000 active. AID 504444; also: potency is read from the fitted curve at half-maximal effect; % is scaled to controls: 0 for no effect and ±100 for the full control effect; nearly all actives have a fitted effect of over 60% in size
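A549 ARE_Fluc cells (5000/well, 5% FBS OPTI-MEM) pre-incubated 2 h, then treated with compounds 18-24 h at 37C/5% CO2 in concentration-response. CellTiter-Fluor viability read first; BugLite luciferase luminescence after 15 min at room temperature gives Nrf2 activity.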
miR-21 reporter = miR-21 reporter, rising signal; Potency, µM (titrated, usually from 38.3 µM), without a hit: at the highest dose reporter change, positive = more light; AID 2288; 340,000 tested, under 10 active; HeLa miR-21 FLuc reporter, luciferase, 48 h; active = well fitted rising curve with a large enough effect; inconclusive = small, poorly fitted or top-dose-only effect; inactive = no such curve, though single readings can be large or run the other way;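 note: % of control where 0% means no effect; miR-21 action dims this reporter so a rising signal means less miR-21 action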
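Compounds were titrated across several concentrations (up to approximately 40 uM) and incubated 48 hours with HeLa miR-21-FLuc reporter cells (miR-21 target sequence downstream of FLuc, endogenous miR-21). Readout was firefly luciferase luminescence after lytic detection reagent.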
ClpP mod = qHTS Assay for Activators of ClpP; ATP-dependent Clp protease proteolytic subunit (Bacillus subtilis (strain 168)), P80244; purified B. subtilis ClpP, FRET peptide cleavage, 20 min; Potency, µM (series often up to 57.5 µM), without a hit: top-dose activity change, negative = active; 1.9% of 340,000 active; active = well fitted falling curve with a large enough effect; inconclusive = small, poorly fitted or top-dose-only effect; inactive = no such curve, though single readings can be large or run the other way; also: potency is read from the fitted curve at half-maximal effect; the source files actives as falling curves though it sought activators and does not explain the sign; nearly all actives have a fitted effect of over 65% in size
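FRET quenching reversal measured ClpP activation: 10 microg/mL B. subtilis ClpP at pH 8 with the FRET-FV decapeptide, read at 430 nm after 320 nm excitation. The 20-min minus 0-min signal was scaled between DMSO/no-enzyme wells and ADEP (5.8 microM final).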
Nrf2 ARE act = activates Nrf2 signaling; AREc32 ARE-luciferase reporter (MCF7-derived line), luminescence, 24 h; Potency, µM (series often up to 46.1 µM), without a hit: at the top dose activation, most hits filed as activators; AID 624171; 0.31% of 410,000 active; also: potency is read from the fitted curve at half-maximal effect; % of control where 0% means no effect; nearly all actives have a fitted effect of over 65% in size
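Quantitative high-throughput format: AREc32 reporter cells, 1000 per well, received compound by pin transfer and were incubated 24 hr at 37 deg C, 5% CO2, before Steady-Glo luminescence detection.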
A549 tox = counter-screen for Nrf2 inhibitors: cytotoxicity in A549 cells. Potency, µM (top dose mostly 46 µM), for the others: at the highest dose activity change, negative = cytotoxicity, actives largely listed as inhibitors. 0.16% of 390,000 active. AID 504648. A549 ARE-Fluc cells, CellTiter-Fluor viability, 18-24 h; also: potency is read from the fitted curve at half-maximal effect; % is scaled to controls: 0 for no effect and ±100 for the full control effect
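Cytotoxicity counterscreen: CellTiter-Fluor fluorescence was measured in A549 ARE_Fluc cells after 18-24 h of compound exposure in a concentration series. The subsequent BugLite luminescent read reports ARE-luciferase activity.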
TCR activator = T cell receptor activation; primary human leukocytes, anti-CD3, IL-2 HTRF, 48 h; Potency, µM (titrated, usually from 9.22 µM), without a hit: at the highest dose activation of IL-2 secretion, hits mostly activators; 330,000 tested, under 10 active; also: % of control where 0% means no effect
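1) Mix primary human leukocytes, a-CD3 beads and compound. 2) Incubate 48 hr. 3) Add HTRF IL-2 reagents (a-IL-2-K, a-IL-2-d2).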
Active calls of the source: *; ? = inconclusive; · = no result given; [ ] = another dose, or the depositor's remark. Unless noted, calls follow the shape of the dose curve; as a rule, active = well fitted curve in the direction sought with a large enough effect; inconclusive = small, poorly fitted or top-dose-only effect, or another doubt; inactive = no such curve, though single readings can be large; an effect the other way counts as inactive or inconclusive.

SMILES | Nrf2 block | miR-21 reporter | ClpP mod | Nrf2 ARE act | A549 tox | TCR activator
N#C/C(=C\c1c(Cl)cccc1Cl)c1nc2ccccc2[nH]1 | 5.7% | -2.1% | -14.2% | 15.9% | 0.5% | 2.9%
Cc1cc(O)ccc1N/C=C(\C#N)c1nc2ccccc2o1 | 17.0% | -2.3% | 17.8µM* | ? | -4.3% | -5.6%[46.1 µM]
N#C/C(=C\c1c(Cl)cccc1Cl)c1nc2ccccc2o1 | 18.0% | -8.7% | 3.98µM* | 20.5% | 2.8% | 1.6%[46.1 µM]
Cc1cc(O)ccc1NC(=O)c1ccccc1 | 4.9% | -4.7% | -0.4% | -0.6% | 5.9% | -4.7%
Cc1ccc(C(c2ccc(C)c(C)c2)C(O)C2OC(=O)C(O)C2O)cc1C (stereo unspecified) | 1.4% | · | -3.3% | -0.4% | 1.6% | -4.2%
O=C(Nc1ccc(N2CCN(C(=O)c3cccs3)CC2)cc1)c1cccc(F)c1 | ? | 15.6% | · | -0.6% | 7.0% | -5.6%
CCCC(=O)N1CCN(c2ccc(NC(=O)c3ccco3)cc2)CC1 | 5.5% | -19.1% | -1.3% | -0.2% | -9.0% | ·
CCCC(=O)NC(=S)Nc1ccc(NC(=O)c2cccs2)cc1 | 6.2% | -5.6% | -0.1% | -0.1% | -2.5% | ·
COc1cccc(C(=O)Nc2ccc(N3CCN(C(=O)c4cccs4)CC3)cc2)c1 | 20.6µM* | 28.6% | -0.2% | -0.6% | ? | -3.1%
CCCC(=O)N1CCN(c2ccc(NC(=O)c3cccs3)cc2)CC1 | -11.0% | -10.2% | 15.8µM* | 0.4% | 0.2% | 2.3%
CCCC(=O)NC(=S)Nc1ccc(N2CCN(C(=O)c3cccs3)CC2)cc1 | 14.6µM* | 9.3% | -3.1% | 0.0% | -17.3% | -13.7%
O=C(Cn1cc(CN(Cc2ccccc2)Cc2ccccc2)nn1)Nc1cc(C(F)(F)F)ccc1Cl | 18.3% | · | · | · | -5.9% | ·

A few values from the results shown:
TCR activator result of `CCCC(=O)NC(=S)Nc1ccc(N2CCN(C(=O)c3cccs3)CC2)cc1` → -13.7%
Nrf2 ARE act result of `Cc1cc(O)ccc1NC(=O)c1ccccc1` → -0.6%

More results
SMILES | Nrf2 block | miR-21 reporter | ClpP mod | Nrf2 ARE act | A549 tox | TCR activator
c1ccc(OCCNc2nc(NCC3CC3)nc3ccsc23)cc1 | · | · | -18.6% | 3.9% | · | ·
CCC(c1nnnn1-c1ccc2c(c1)OCCO2)N1CCN(c2cc(C)ccc2C)CC1 (stereo unspecified) | · | · | 0.7% | 3.3% | · | ·
c1ccc(-c2nc(NCc3ccco3)c3ccccc3n2)nc1 | 20.6µM* | ? | -2.4% | 8.3% | -26.2% | 0.4%
c1coc(CNc2nc(N3CCCCC3)nc3ccccc23)c1 | ? | 13.9% | 22.4µM* | 4.9% | ? | -4.5%
O=C(NNC(=O)c1ccccc1O)c1ccc(S(=O)(=O)Nc2ccccc2)cc1 | -23.3% | · | -2.1% | 0.0% | 1.4% | -1.6%
COc1ccc(C2c3c(N)nc(CCc4ccccc4)nc3Oc3ccc4ccccc4c32)cc1OC (stereo unspecified) | ? | · | · | · | -13.9% | ·
CCc1cc(=O)oc2cc(OCC(N)=O)c(Cl)cc12 | -19.1% | -0.5% | 31.6µM* | 0.2% | -5.1% | 7.2%
C=C(Cl)COc1ccc2c(C)cc(=O)oc2c1 | 11.4% | -53.3% | 10µM* | 3.8% | 5.3% | 3.5%[46.1 µM]
CCCCc1cc(=O)oc2cc(OCC(=O)N(CC)CC)ccc12 | 9.1% | -16.9% | 28.2µM* | -0.2% | 0.6% | 9.3%
C=C(Cl)COc1ccc2c(CCCC)cc(=O)oc2c1 | · | -30.5% | 28.2µM* | 2.5% | 5.8% | 2.4%
CCCCc1cc(=O)oc2cc(OS(C)(=O)=O)ccc12 | 20.9% | -57.7% | 1.2% | 9.2% | -7.4% | 0.1%[46.1 µM]
Cc1cc(=O)oc2cc(OCC(=O)NC3CCCC3)ccc12 | -4.5% | 1.2% | 4.8% | -0.2% | 1.3% | 2.7%
O=C(COc1ccc2c(-c3ccccc3)cc(=O)oc2c1)NCCCN1CCOCC1 | 9.1% | -19.5% | 0.9% | -0.5% | 6.6% | 6.9%
Cc1cc(=O)oc2cc(OCC(=O)NCCCN3CCOCC3)ccc12 | -12.1% | -0.7% | 28.2µM* | -0.1% | -0.2% | 1.0%
C=C(Cl)COc1ccc2c(CC)cc(=O)oc2c1 | -7.8% | -27.7% | 25.1µM* | -0.2% | 16.5% | -1.2%
C=C(C)COc1ccc2c(CC)cc(=O)oc2c1 | ? | -45.0% | 4.1% | 1.0% | 24.9% | 1.8%
Cc1ccc(SCC(=O)NC(=O)NCc2ccccc2)c(C)c1 | ? | -5.7% | 35.5µM* | 2.6% | 9.6% | 2.5%[46.1 µM]
COc1ccc(/C=C(/C#N)C(=O)Nc2cc(C)ccc2C)cc1C(=O)O | 16.3% | -6.4% | 25.1µM* | -0.1% | -2.5% | -73.7%
COc1ccc(/C=C(\C#N)C(=O)Nc2cc(C)c(Cl)cc2OC)cc1O | -6.8% | -1.8% | 0.6% | 1.9% | 0.0% | -0.6%
Cc1oc2cc(O)ccc2c(=O)c1-c1cnn(-c2ccccc2)c1 | · | -26.6% | 31.6µM* | 5.1% | -9.2% | 2.9%
Cc1cc2c(s1)c1cnn(Cc3ccc(C(=O)O)cc3)c(=O)c1n2C | 3.5% | · | · | · | 0.7% | ·
Cc1ccc(SC(C)C(=O)Nc2cccnc2)cc1 (stereo unspecified) | 11.9% | -6.1% | 0.0% | 0.0% | -2.7% | -1.6%
Cc1ccc(SC(C)C(=O)Nc2ccncc2)cc1 (stereo unspecified) | 13µM* | 6.5% | -0.6% | -0.5% | -1.4% | -2.9%
Cc1ccc(-c2c3c(=O)n(C)c(=O)n(C)c3cn2-c2cc(C)ccc2O)cc1 | 8.9% | -3.1% | 3.55µM* | 6.5% | -2.0% | ·
CC(=O)Nc1ccc(-n2cc3c(c2-c2ccc(C)cc2)c(=O)n(C)c(=O)n3C)cc1 | ? | -16.9% | 20µM* | 0.5% | -3.2% | ·
CC(=O)Nc1cccc(-n2cc3c(c2-c2ccccc2Cl)c(=O)n(C)c(=O)n3C)c1 | 9.1% | -43.8% | 28.2µM* | 5.2% | -2.0% | ·
Cc1cccc(-c2c3c(=O)n(C)c(=O)n(C)c3cn2CCO)c1 | -6.9% | 0.3% | 28.2µM* | -0.4% | -11.2% | -6.1%
CCc1ccc(-n2c(=O)c3c4c(sc3n(CC(=O)c3ccc(F)cc3)c2=O)CCC4)cc1 | ? | -1.1% | 1.8% | -1.1% | 3.7% | ·
CCCC(=O)N1CCC1(C)C(=O)NS(=O)(=O)c1ccc(C)cc1 (stereo unspecified) | · | · | -3.6% | -1.6% | · | ·
O=C(O)Cc1sc(Nc2ccccc2Cl)nc1-c1ccccc1 | ? | -40.2% | -0.2% | 4.8% | -7.3% | ·
O=C(OCc1nnn(Cc2ccccc2)c1-c1c(COC(=O)c2ccccc2)nnn1Cc1ccccc1)c1ccccc1 | -18.9% | 29.1% | -6.8% | 0.9% | -5.6% | 2.7%
CC(NS(=O)(=O)c1ccc(OCC(=O)Nc2cccc([N+](=O)[O-])c2)cc1)c1ccccc1 (stereo unspecified) | ? | ? | · | 7.9% | -3.8% | -3.3%[46.1 µM]
CCN(CC)S(=O)(=O)c1cccc(NC(=O)Nc2cccc(C(F)(F)F)c2)c1 | 2.59µM* | ? | 2.0% | -1.7% | ? | 1.3%

No new results follow: an excerpt of the list.
SMILES | Nrf2 block | miR-21 reporter | ClpP mod | Nrf2 ARE act | A549 tox | TCR activator
O=C(OCc1nnn(Cc2ccccc2)c1-c1c(COC(=O)c2ccccc2)nnn1Cc1ccccc1)c1ccccc1 | -18.9% | 29.1% | -6.8% | 0.9% | -5.6% | 2.7%
CC(NS(=O)(=O)c1ccc(OCC(=O)Nc2cccc([N+](=O)[O-])c2)cc1)c1ccccc1 (stereo unspecified) | ? | ? | · | 7.9% | -3.8% | -3.3%[46.1 µM]
CCN(CC)S(=O)(=O)c1cccc(NC(=O)Nc2cccc(C(F)(F)F)c2)c1 | 2.59µM* | ? | 2.0% | -1.7% | ? | 1.3%
